In series [1] the test system is P. falciparum, strain NF54, erythrocytic stages. Put plainly: In vitro growth inhibition assay of Plasmodium falciparum NF54 ([3H]-hypoxanthine incorporation). The note with it: based on IC50 values in nmol/L; DataWarrior 5.5.0. As to the method:
Antimalarial activity was determined in vitro against the erythrocytic stages of P. falciparum using the drug-sensitive strain NF54. Parasite proliferation was assessed by incorporation of [^3H]-hypoxanthine using a modified version of [75]; for details, please refer to the Supplementary Materials. The positive control was chloroquine.
1. Experimental of biological testing
1.1 In vitro growth inhibition assay of Plasmodium falciparum NF54
Plasmodium falciparum, strain NF54, erythrocytic stages, and the standard drug, chloroquine, were used for the assay. The parasite cultures incubated in RPMI 1640 medium with 5% AlbuMAXTM (without hypoxanthine) were exposed to serial drug dilutions in microtiter plates. After 48 h of incubation at 37 °C in a reduced oxygen atmosphere, 0.5 μCi [3H]-hypoxanthine was added to each well of the plate. Cultures were incubated for a further 24 h before they were harvested onto glass-fiber filters and washed with distilled water. The radioactivity was counted using a BetaplateTM liquid scintillation […]
counter (Wallac, Zurich). […]
concentration and expressed as percentage of the untreated controls. IC50 values were calculated from the sigmoidal inhibition curves using Microsoft Excel. Chloroquine was used as control. […]

Series [2] concerns T. brucei rhodesiense, strain STIB900 trypomastigote forms. Put plainly: In vitro growth inhibition assay of Trypanosoma brucei rhodesiense STIB900 (Alamar blue). The conditions noted are these: based on IC50 values in nmol/L; DataWarrior 5.5.0. Here is the method: Trypanocidal activity was determined in vitro against axenically grown bloodstream-forms of T. b. rhodesiense STIB900 as described in Refs. [76, 77] and detailed in the Supplementary Materials. Parasite proliferation was assessed via fluorescence of the redox-sensitive dye resazurin (Alamar blue). The drug melarsoprol was used as the positive control. […]
1.2 In vitro growth inhibition assay of Trypanosoma brucei rhodesiense
Trypanosoma brucei rhodesiense, STIB 900 strain, and the standard drug, melarsoprol, were used for the assay. Minimum Essential Medium (50 μL) supplemented with 25 mM HEPES, 1g/L additional glucose, 1% MEM non-essential amino acids (100x), 0.2 mM 2-mercaptoethanol, 1 mM Na-pyruvate and 15% heat-inactivated horse serum was added to each well of a 96-well microtiter plate. Serial drug dilutions of 11 three-fold dilution steps covering a range from 100 to 0.002 μg/mL were prepared. Then […]
mL double-distilled water) was then added to each well and incubation continued for a further 2–4 h.
Then, the plates were read with a Spectramax Gemini XS microplate fluorometer (Molecular Devices Cooperation, Sunnyvale, CA, USA) using an excitation wavelength of 536 nm and an emission wavelength of 588 nm. The IC50 values were calculated from the sigmoidal inhibition curves using the microplate reader software Softmax Pro (Molecular Devices Cooperation, Sunnyvale, CA, USA). […]

Consider `O=C1C=C(Cc2ccccc2)C(=O)c2ccccc21` [Compound 5c, 2-Benzyl-1,4-dihydronaphthalene-1,4-dione], for which, in series [1], the “ligand efficiency lipophilic price (LELP), P. falciparum” value was determined as 7.6191 and the “lipophilic ligand efficiency (LLE), P. falciparum” value came out at 2.7161. Further, in series [2], the “ligand efficiency lipophilic price (LELP), T. brucei rhodesiense” value was 6.4819 and the “lipophilic ligand efficiency (LLE), T. brucei rhodesiense” value amounted to 3.7754.
